In this experiment the target is Delta-type opioid receptor (Homo sapiens, UniProt P41143). Description: ASSAY_NAME: ChEBML_217729 DESCRIPTION: Binding affinity towards delta opioid receptor in guinea pig brain membranes using [3H]- CI-DPDPE as radioligand.

By UniProt entry, the sequences of proteins in these tests, tags left out.
UniProt P41143, whole entry: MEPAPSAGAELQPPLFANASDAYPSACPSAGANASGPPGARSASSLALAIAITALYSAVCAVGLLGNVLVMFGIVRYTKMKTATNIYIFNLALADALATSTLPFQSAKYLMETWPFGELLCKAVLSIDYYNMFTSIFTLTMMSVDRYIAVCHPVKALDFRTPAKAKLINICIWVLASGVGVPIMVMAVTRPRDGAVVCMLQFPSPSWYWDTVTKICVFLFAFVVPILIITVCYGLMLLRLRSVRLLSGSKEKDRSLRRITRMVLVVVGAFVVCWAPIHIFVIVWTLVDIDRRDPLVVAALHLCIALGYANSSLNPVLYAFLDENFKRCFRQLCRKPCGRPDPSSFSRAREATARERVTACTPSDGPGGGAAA

The structures appear in SMILES notation. pKi: −log10 of the molar value.

Consider `CN1CC[C@]23c4c5ccc(O)c4O[C@H]2[C@@]24CC[C@@]3(C[C@@H]2C(C)(C)C(C)(C)O4)C1C5`, for which the pKi (as a rule, the negative decadic logarithm of the Ki, by convention in mol/L) was 8.36.
`CN1CC[C@]23c4c5ccc(O)c4O[C@H]2[C@@]24CC[C@@]3(C[C@H]2C(C)(C)C(C)(C)O4)C1C5` had a pKi of 8.21.
The same measure for `C[C@@H]1CO[C@@]23CCC4(C[C@H]12)C1Cc2ccc(O)c5c2C4(CCN1CC1CC1)[C@H]3O5`: 8.92; for `CC1C2CC34CCC2(OC1(C)C)C1Oc2c(O)ccc5c2C13CCN(C)C4C5` (stereo unspecified): 8.36.
The same measure for `CC1(C)OC23CCC4(CC2C1(C)C)C1Cc2ccc(O)c5c2C4(CCN1CC1CC1)C3O5` (stereo unspecified): 9.10; for `C[C@H]1CO[C@@]23CCC4(C[C@@H]12)[C@H]1Cc2ccc(O)c5c2C4(CCN1CC1CC1)[C@H]3O5`: 9.15.

The values are drawn from BindingDB's records for 10206545.
